A word on the IC50: it is the concentration that inhibits the measured activity by half.

The chains behind the UniProt entries cited, without tags or fusion partners.
UniProt P23977, whole entry: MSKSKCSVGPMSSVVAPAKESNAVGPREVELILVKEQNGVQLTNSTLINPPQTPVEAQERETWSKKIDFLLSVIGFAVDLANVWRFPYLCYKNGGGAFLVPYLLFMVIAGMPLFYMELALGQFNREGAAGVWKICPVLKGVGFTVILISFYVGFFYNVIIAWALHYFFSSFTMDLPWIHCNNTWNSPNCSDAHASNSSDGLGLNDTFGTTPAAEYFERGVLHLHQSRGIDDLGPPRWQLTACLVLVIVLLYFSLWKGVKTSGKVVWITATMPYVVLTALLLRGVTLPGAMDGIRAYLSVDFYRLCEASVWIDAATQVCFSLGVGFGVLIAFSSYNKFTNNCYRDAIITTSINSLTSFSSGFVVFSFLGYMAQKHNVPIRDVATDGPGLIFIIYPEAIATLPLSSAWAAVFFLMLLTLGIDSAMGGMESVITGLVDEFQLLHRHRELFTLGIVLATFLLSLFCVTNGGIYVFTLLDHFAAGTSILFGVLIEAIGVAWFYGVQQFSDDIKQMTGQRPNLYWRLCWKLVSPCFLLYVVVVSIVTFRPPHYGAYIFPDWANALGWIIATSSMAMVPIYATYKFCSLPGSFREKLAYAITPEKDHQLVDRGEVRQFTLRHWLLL

The target in the assay is Sodium-dependent dopamine transporter (Rattus norvegicus, UniProt P23977). Kind of assay: Inhibition of dopamine DA reuptake. The method, boiled down:
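Uptake into synaptosomes in Krebs-phosphate buffer, pH 7.4, with ascorbic acid 1 mg/mL and pargyline 50 µM. Final tracer was 5 nM [3H]DA or 2 nM [3H]5HT. Incubated at 25 °C for 15 min (DA) or 30 min (5HT), then filtered and filter tritium counted. IC50 derived.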

Compound `C[C@@H]1CN(CCOC(c2ccccc2)c2ccccc2)[C@@H](C)CN1CCCc1ccccc1` displayed an IC50 of 9.6 nM. This lies in the single-digit nanomolar range.

The values above are taken from ChEMBL document CHEMBL1129408, “Development of novel, potent, and selective dopamine reuptake inhibitors through alteration of the piperazine ring of 1-[2-(diphenylmethoxy)ethyl]-and 1-[2-[bis(4-fluorophenyl)methoxy]ethyl]-4-(3-phenylpropyl)piperazines (GBR 12935 and GBR 12909)” (J Med Chem, 1996).
